These results are taken from ChEMBL document CHEMBL5223066, “The medicinal chemistry of mitochondrial dysfunction: a critical overview of efforts to modulate mitochondrial health” (RSC Med Chem, 2021).

Amino acid sequences for entries named in this document (tags omitted). Residues count along the entry.
UniProt P04839, 2-570 limits assumed: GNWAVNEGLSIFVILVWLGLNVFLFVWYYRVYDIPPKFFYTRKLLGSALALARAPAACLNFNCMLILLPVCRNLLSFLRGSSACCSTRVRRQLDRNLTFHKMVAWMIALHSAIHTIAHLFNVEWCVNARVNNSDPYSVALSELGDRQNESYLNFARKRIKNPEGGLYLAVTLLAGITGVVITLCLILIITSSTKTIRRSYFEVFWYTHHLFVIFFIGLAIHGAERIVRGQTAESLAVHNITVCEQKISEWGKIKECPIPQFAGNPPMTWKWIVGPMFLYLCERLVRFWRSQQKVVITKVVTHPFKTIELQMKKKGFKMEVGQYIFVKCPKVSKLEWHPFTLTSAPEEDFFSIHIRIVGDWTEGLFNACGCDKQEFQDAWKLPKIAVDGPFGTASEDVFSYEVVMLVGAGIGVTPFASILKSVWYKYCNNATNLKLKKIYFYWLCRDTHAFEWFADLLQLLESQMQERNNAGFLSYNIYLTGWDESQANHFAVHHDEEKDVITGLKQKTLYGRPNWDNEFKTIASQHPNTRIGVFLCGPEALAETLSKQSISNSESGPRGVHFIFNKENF

One may read the IC50 as the concentration at which inhibition is half-maximal. A high value points to weaker potency in that assay.

Data set [1] in a line: Ratio of drug level in brain to blood in rat at 1 mg/kg, iv.
The target in the next data set is NADPH oxidase 2 (Homo sapiens, UniProt P04839). The experiment in a line: Inhibition of NOX2 (unknown origin).

With `CC(C)n1cc(-c2ccc3c(c2)N(C)CC3)c2c(NS(=O)(=O)c3cnn(C)c3)ccnc21`, the Ratio in data set [1] is 0.82. On NADPH oxidase 2, this compound returned an IC50 of 500 nM.
